Reference: ChEMBL document CHEMBL1949670, “Probes for narcotic receptor mediated phenomena. 44. Synthesis of an N-substituted 4-hydroxy-5-(3-hydroxyphenyl)morphan with high affinity and selective μ-antagonist activity” (Eur J Med Chem, 2012)

System: Mus musculus
Test: Antinociceptive activity in sc dosed mouse
Type: functional

CN1CC[C@]23c4c5ccc(O)c4O[C@H]2[C@@H](O)C=C[C@H]3[C@H]1C5 [MORPHINE]
ED50: 2.1 mg/kg
